# Results published in PubChem BioAssay AID489030 (Sanford-Burnham Center for Chemical Genomics, 2010).
# By UniProt entry, the sequences of proteins in these tests, tags left out. Where a name states a change or a piece, a line headed by the entry shows the natural chain unless it says otherwise.
# UniProt O14727: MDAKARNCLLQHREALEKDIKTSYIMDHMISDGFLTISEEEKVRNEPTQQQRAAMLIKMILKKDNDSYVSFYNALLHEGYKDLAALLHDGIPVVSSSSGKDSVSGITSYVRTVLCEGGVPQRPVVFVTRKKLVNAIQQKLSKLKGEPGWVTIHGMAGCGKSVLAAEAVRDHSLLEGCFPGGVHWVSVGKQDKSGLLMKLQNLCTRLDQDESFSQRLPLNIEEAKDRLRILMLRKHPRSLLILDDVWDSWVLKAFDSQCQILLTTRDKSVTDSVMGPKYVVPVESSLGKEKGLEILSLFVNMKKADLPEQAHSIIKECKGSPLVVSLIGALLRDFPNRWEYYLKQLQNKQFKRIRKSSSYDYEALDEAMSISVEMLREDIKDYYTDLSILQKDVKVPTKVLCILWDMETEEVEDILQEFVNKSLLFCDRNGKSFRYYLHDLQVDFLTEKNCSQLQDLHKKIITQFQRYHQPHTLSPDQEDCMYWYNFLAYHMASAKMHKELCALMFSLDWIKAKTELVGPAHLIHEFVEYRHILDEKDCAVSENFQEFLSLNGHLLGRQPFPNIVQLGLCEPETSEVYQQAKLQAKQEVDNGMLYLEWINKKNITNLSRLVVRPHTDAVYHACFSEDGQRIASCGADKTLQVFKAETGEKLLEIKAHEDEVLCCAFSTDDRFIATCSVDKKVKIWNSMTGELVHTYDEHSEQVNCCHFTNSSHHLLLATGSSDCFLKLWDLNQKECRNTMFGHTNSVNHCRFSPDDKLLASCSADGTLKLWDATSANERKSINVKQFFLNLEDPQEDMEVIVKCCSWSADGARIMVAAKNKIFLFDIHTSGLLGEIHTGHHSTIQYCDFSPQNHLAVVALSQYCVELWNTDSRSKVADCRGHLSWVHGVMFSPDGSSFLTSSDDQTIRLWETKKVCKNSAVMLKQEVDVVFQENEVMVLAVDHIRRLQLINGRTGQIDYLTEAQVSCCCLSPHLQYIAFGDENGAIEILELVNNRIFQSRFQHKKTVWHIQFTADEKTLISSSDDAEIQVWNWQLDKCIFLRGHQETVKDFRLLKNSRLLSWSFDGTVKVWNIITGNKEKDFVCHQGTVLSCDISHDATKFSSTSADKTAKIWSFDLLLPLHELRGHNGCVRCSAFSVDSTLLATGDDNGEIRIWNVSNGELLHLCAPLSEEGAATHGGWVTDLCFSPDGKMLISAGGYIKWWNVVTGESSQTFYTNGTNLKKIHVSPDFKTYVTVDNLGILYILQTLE
# The list shows a part of the results, in another mix than the full data. Active and inactive are the calls of the source. Rule for the calls: active = inhibition of at least 40% at 20 µM; inactive = the rest.
# Biological target: Apoptotic protease-activating factor 1 (Homo sapiens) (UniProt O14727)
# Test: blockers of Apaf-1-driven caspase-3 activation – biochemical, DEVD-Rh110 fluorescence, uHTS, primary screen (AID 489030);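 note: plate controls were DMSO wells for no effect and DEVD-CHO caspase inhibitor wells for full effect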
# Conditions: reconstituted apoptosome caspase-3 activity, at 20 µM, stronger effect = higher value
row,Compound,inhibition
1,CC(NC(=O)COC(=O)C(O)(c1ccccc1)c1ccccc1)c1ccccc1 (stereo not drawn),inactive: 13.7%
2,CCC(=O)N1C2C3N(C(=O)CC)C1C1N(C(=O)CC)C(C(N1C(=O)CC)N3C(=O)CC)N2C(=O)CC,inactive: 13.1%
3,O=C(OC1CN2CCC1CC2)c1ccccc1 (stereo not drawn),inactive: 4.25%
4,Cc1ccc(OP(=O)(Nc2ccccn2)Oc2ccc(C)cc2)cc1,inactive: 15.3%
5,CC(=O)NC(SC(=S)N(CC(C)C)CC(C)C)C(Cl)(Cl)Cl (stereo not drawn),inactive: 1.34%
6,COC(=O)c1cc2c(s1)N=C(c1ccccc1)N(C)P2(=O)N1CCOCC1 (stereo not drawn),inactive: -0.879%
7,Cc1ccc(NP(=O)(Oc2ccccc2F)Oc2ccccc2F)nc1,inactive: -2.97%
8,CN(C(=O)Cc1ccc(Cl)c(Cl)c1)[C@H]1CCCC[C@@H]1N1CCCC1,inactive: -7.75%
9,CCOP(=O)(Nc1ccccc1)OCC,inactive: 8.97%
10,Cc1cc(SC(NC(=O)c2ccc(F)cc2)C(Cl)(Cl)Cl)ncn1 (stereo not drawn),inactive: -4.2%
11,O=P(Nc1nc2ccc(Cl)cc2s1)(c1ccccc1)c1ccccc1,inactive: 14.4%
12,O=C(O)c1ccccc1[As](=O)(O)O,inactive: 3.26%
13,CC(=O)Nc1ccc([As](=O)(O)O)cc1,inactive: 4.28%
14,CCN(N=Nc1nonc1N)c1nonc1N,inactive: -11.8%
15,O=[N+]([O-])c1cc([N+](=O)[O-])c(CCN2CCOCC2)c([N+](=O)[O-])c1,inactive: 17.8%
16,Clc1ccc(Cl)c(NC2=NCC(CBr)S2)c1 (stereo not drawn),inactive: 11.1%
17,CN1CCCC(OC(=O)C(c2ccccc2)c2ccccc2)C1 (stereo not drawn),inactive: -6.51%
18,Cc1ccc(OP(=O)(Nc2nccs2)Oc2ccc(C)cc2)cc1,inactive: 5.2%
19,COc1ccccc1OP(=O)(Nc1ccc(C)cn1)Oc1ccccc1OC,inactive: 4.38%
20,Cc1ccc(N/C(=N/P(=O)(N2CCOCC2)N2CCOCC2)N2CCOCC2)cc1,inactive: -16.8%
21,CN(C(=O)Cc1ccc(Cl)c(Cl)c1)[C@H]1CCCC[C@H]1N1CCCC1,inactive: 5.22%
22,NC(=O)c1cc([N+](=O)[O-])cc([N+](=O)[O-])c1N,inactive: -4.52%

row,Compound,inhibition
1,Cc1c2non([O-])c-2c(C)[n+](=O)[n+]1[O-],inactive: -1.51%
2,O=C(NC(Sc1ccncn1)C(Cl)(Cl)Cl)c1ccccc1 (stereo not drawn),inactive: -2.17%
3,Oc1ccccc1CNc1ccccn1,inactive: -28.6%
4,CC(C)CC(=O)NC(Sc1ccc(Cl)cc1)C(Cl)(Cl)Cl (stereo not drawn),inactive: -6.44%
5,Nc1cc(N)c2nonc2c1[N+](=O)[O-],inactive: -6.32%
6,CCc1nc2c(n1)c1c(non1O)c1c2no[n+]1[O-],active: 58%
7,O=[N+]([O-])c1cc([N+](=O)[O-])c(CCNc2ccccc2)c([N+](=O)[O-])c1,inactive: 26.6%
8,Cc1ccc(NP(=O)(Oc2ccccc2)Oc2ccccc2)nc1,inactive: 10.6%
9,O=[N+]([O-])c1cccc2n[nH]nc12,inactive: 5.74%
10,CC(=O)N1C2C3N(C(C)=O)C1C1N(C(C)=O)C(C(N1C(C)=O)N3C(C)=O)N2C(C)=O,inactive: -1.46%
11,COc1ccc(C2=NCC(CBr)S2)cc1 (stereo not drawn),inactive: -1.76%
12,CC1CCN(C(=O)Oc2c(Cl)cc(Cl)c3cccnc23)CC1,inactive: 23.9%
13,CN(C)C(=O)OCCc1n(C)cc[n+]1C,inactive: 11.1%
14,CC(C)=N/N=C(\N)N[N+](=O)[O-],inactive: 7.16%
15,CCN(/C(=N/P(=O)(N1CCOCC1)N1CCOCC1)N1CCOCC1)c1ccc(OC)cc1,inactive: 2.09%
16,C[N+]1=C2C=CC=CC=C2SC12C([N+](=O)[O-])=CC([N+](=O)[O-])=C[C-]2[N+](=O)[O-] (stereo not drawn),active: 51.7%
17,Nc1ccc([As](=O)(O)c2ccc(N)cc2)cc1,inactive: 3.32%
18,O=C(Nc1cc([As](=O)(O)O)ccc1O)c1ccccc1,inactive: 5.11%
19,O=[N+]([O-])c1cccc(NC2=NCC(CBr)S2)c1 (stereo not drawn),inactive: -11.1%
20,O=[N+]([O-])c1ncn(CCn2ncnc2[N+](=O)[O-])n1,inactive: -10.2%
21,CC(C)(C)C(=O)NC(Sc1ccncn1)C(Cl)(Cl)Cl (stereo not drawn),inactive: -11.6%
